This assay addresses Aldo-keto reductase family 1 member B1 (Bos taurus, UniProt P16116). Briefly: Inhibition of bovine lens aldose reductase with DL-glyceraldehyde as substrate.

Molecules are shown by their SMILES.

The term IC50 denotes the concentration that inhibits the measured activity by half. Low readings indicate inhibition by little substance, high ones a need for much substance. The molecule `COc1ccc2c(C(=S)N(C)CC(=O)O)cccc2c1C(F)(F)F` [TOLRESTAT] yielded an IC50 of 35 nM.

The record behind these values is ChEMBL document CHEMBL1122576, “N-[5-(trifluoromethyl)-6-methoxy-1-naphthalenyl]thioxomethyl]- N-methylglycine (Tolrestat), a potent, orally active aldose reductase inhibitor” (J Med Chem, 1984).
